Measurements taken from article PMC8398766, “Do Small Molecules Activate the TrkB Receptor in the Same Manner as BDNF? Limitations of Published TrkB Low Molecular Agonists and Screening for Novel TrkB Orthosteric Agonists” (Pharmaceuticals, 2021).
Values joined by “and” are separate entries in the source; they are usually repeats but may differ in a detail not shown here. Equal values may be shown once.

Chains of the proteins cited; added tags and fusions are not shown. Residues count along the entry.
UniProt Q63604, 32-821 limits assumed: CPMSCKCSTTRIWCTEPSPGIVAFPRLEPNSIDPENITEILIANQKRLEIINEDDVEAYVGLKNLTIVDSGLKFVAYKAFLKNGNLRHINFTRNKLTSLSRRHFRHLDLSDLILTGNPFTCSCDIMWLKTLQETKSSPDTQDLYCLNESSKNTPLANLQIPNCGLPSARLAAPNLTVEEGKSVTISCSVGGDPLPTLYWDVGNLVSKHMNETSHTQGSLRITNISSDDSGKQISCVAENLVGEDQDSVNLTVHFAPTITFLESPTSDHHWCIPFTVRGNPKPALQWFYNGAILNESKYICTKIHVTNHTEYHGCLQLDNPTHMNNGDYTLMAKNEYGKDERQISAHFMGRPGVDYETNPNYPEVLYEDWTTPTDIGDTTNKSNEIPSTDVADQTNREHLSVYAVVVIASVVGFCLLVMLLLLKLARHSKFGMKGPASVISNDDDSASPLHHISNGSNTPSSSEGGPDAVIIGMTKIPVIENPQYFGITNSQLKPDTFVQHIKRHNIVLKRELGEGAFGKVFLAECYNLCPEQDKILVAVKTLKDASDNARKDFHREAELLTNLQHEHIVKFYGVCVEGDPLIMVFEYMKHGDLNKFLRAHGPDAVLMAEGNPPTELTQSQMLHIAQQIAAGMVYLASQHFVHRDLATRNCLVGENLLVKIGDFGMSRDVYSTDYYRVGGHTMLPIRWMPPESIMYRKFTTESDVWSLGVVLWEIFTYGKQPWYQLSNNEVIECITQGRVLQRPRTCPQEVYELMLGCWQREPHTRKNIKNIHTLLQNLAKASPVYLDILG

What was measured:
TrkB receptor = TrkB receptor (Rattus norvegicus, UniProt Q63604); test: ELFI TrkB phosphorylation, orthosteric agonist mode, SN56 T48 cell line; settings: TrkB phosphorylation (Tyr706), 15 min; no orthosteric activity given as 0
[1] = system: TrkB and downstream proteins (PLCγ1, Akt1, ERK1/2); test: Downstream signaling immunoblot, SN56 T48 cell line; settings: for Activation of downstream proteins (Akt1 and ERK1/2) after inhibition of TrkB kinase by K252a: K252a 1 μM 15 min before 100 μM compound; for Phosphorylation of TrkB and downstream proteins (PLCγ1, Akt1, ERK1/2): compounds up to 100 μM, BDNF up to 100 ng/mL, 15 min
Description: The SN56 T48 cell line with stable overexpression of the TrkB receptor was purchased from Emory University (Atlanta, GA, USA) and cultivated according to the protocol described in Jang et al., 2010 [12]. The cell lines were cultivated with the following reagents: DMEM High Glucose, fetal bovine serum (FBS), Penicillin-Streptomycin Solution 100×, and Trypsin-EDTA 1×; all were purchased from Biowest, and G418 was from ThermoFisher Scientific. For the ELFI experiments, cells were seeded (8000/well) on a PDL-treated 96-well plate (BioCoat™, Corning Inc., Corning, NY, USA) and 6-well plate (400,000/well) for lysate collection and immunoblot analysis.
On the day of the experiments, cells were starved for 5 h with appropriate culture medium. SN56 T48 cells were treated with reference compounds at 100 μM or 1, 10, or 100 μM concentrations of the selected molecules, and 1, 10, and 100 ng/mL of BDNF. Differentiated SH-SY5Y cells were treated with 1, 10, or 100 μM concentrations of the tested molecules and 1, 10, and 100 ng/mL of BDNF for 15 min. For compound specificity, the evaluation cell lines were first pretreated with 1 μM K252a (MilliporeSigma, Saint Louis, MO, USA) for 15 min and then cotreated with 100 μM concentrations of the tested molecules.
Compound treatment was stopped by lysing cells with N-PER™ Neuronal Protein Extraction Reagent (Thermo Fisher Scientific) containing 1 × PhosSTOP™ (Roche, Basel, Switzerland), 1 × Halt Protease Inhibitor Single-Use Cocktail (ThermoFisher Scientific) and 5 mM EDTA. The lysates were collected by scraping, and centrifuged (8000× g; 10 min at 4 °C), and the protein concentration was determined using a BCA Pierce kit (ThermoFisher Scientific). The lysates were stored at −80 °C until further processing. Samples containing 20 μg of protein were further denatured in 4 × Laemli Buffer with 5% β-mercaptoethanol at 95 °C for 5 min and electrophoresed on gels prepared using a 10% TGX Stain-Free™ FastCast™ Acrylamide Kit (Bio-Rad). Afterwards, the proteins were transferred (wet transfer, 100 V, 60 min) onto nitrocellulose membranes (GE Healthcare, Chicago, IL, USA), which were blocked in 5% BSA in TBS-T (TBS + 0.1% Tween20) for 2 h. […] After repeated washes (TBS-T), the proteins were detected with HRP-conjugated anti-rabbit antibodies (1:4000, RT, 2 h) (Cell Signaling Technology), and the blots were incubated with Clarity Max ECL Western Blotting Substrate (Bio-Rad). Blot images and chemiluminescence signals were captured using a ChemiDoc MP Imaging System, and densitometry values were calculated using the Image Lab software (Bio-Rad). […]

[2] = system: TrkB and downstream proteins (PLCγ1, Akt1, ERK1/2); test: Downstream signaling immunoblot, RA-differentiated SH-SY5Y cell line; settings: 1, 10, 100 μM, 15 min
Description: The SH-SY5Y cell line was purchased from MilliporeSigma and cultured in growth medium: MEM (w/Earle’s Salts; w/L-Glutamine) + Ham’s F12 (w/L-Glutamine) (1:1 v/v), 1 × Antibiotic-Antimycotic, 1 × MEM Non-Essential Amino Acids (all reagents from Biowest, Riverside, MO, USA) and 15% FBS (Gibco, Thermo Fisher Scientific, Waltham, MA, USA). Cells were passaged using 0.25% Trypsin-EDTA (Biowest) and cultured in standard conditions (5% CO2, 37 °C with 95% relative humidity).
To differentiate SH-SY5Y, cells were seeded in a cell culture flask at a density of 10,000 cells/cm^2 in standard growth medium containing 10 μM retinoic acid (RA; MilliporeSigma) and cultured for 7 consecutive days. Then, differentiated cells were harvested by trypsinization (Trypsin-EDTA 1×, 3 min at 37 °C), centrifuged (250× g; 5 min at 25 °C) and counted. […]
Compound treatment was stopped by lysing cells with N-PER™ Neuronal Protein Extraction Reagent (Thermo Fisher Scientific) containing 1 × PhosSTOP™ (Roche, Basel, Switzerland), 1 × Halt Protease Inhibitor Single-Use Cocktail (ThermoFisher Scientific) and 5 mM EDTA. The lysates were collected by scraping, and centrifuged (8000× g; 10 min at 4 °C), and the protein concentration was determined using a BCA Pierce kit (ThermoFisher Scientific). […]

| EC50 (TrkB receptor) | SMILES | Activation of downstream proteins (Akt1 and ERK1/2) after inhibition of TrkB kinase by K252a [1] | Phosphorylation of TrkB and downstream proteins (PLCγ1, Akt1, ERK1/2) [1] | Phosphorylation of TrkB and downstream proteins (PLCγ1, Akt1, ERK1/2) [2] |
| --- | --- | --- | --- | --- |
| 44.2 µM and 37 µM | CC(C)=CCc1cccc2c(C3=C(O)C(=O)C=C(O)C3=O)c[nH]c12 | did not repress | demonstrated the activation of the TrkB receptor and phosphorylation of relevant downstream proteins | able to induce the phosphorylation of TrkB, Akt1, ERK1/2, and PLCγ1 |
| 6.6 µM | CC(C)=CCc1cccc2c(C3=C(O)C(=O)C(c4c[nH]c5ccccc45)=C(O)C3=O)c[nH]c12 | did not repress | demonstrated the activation of the TrkB receptor and phosphorylation of relevant downstream proteins | able to induce the phosphorylation of TrkB, Akt1, ERK1/2, and PLCγ1 |
